# Reference: US11357829B2, “Systems, compositions and methods for treating diabetes” (Vanderbilt University, priority 2017, dated 2022)
# Tests used:
# [1] = tested on: conscious subjects (canine); assay: IV pancreatic clamp, insulin-induced hypoglycemia, glucagon raised proportionally vs kept basal (subjects 1, 2, 5, 6); settings: mean of 4 hypoglycemic subjects, similar at I/G 3-5 and I/G 12-25
# [2] = tested on: conscious subjects (canine); assay: Subcutaneous two-pump insulin and glucagon infusion, hypoglycemia (subjects 7-11)
# [3] = tested on: conscious canine subjects; assay: Subcutaneous co-infusion insulin 0.4 mU/kg/min and glucagon 2.1 ng/kg/min with 4-fold insulin challenge; settings: insulin challenge period, insulin 1.6 mU/kg/min, both groups
# [4] = tested on: conscious canine subjects; assay: Subcutaneous co-infusion at reduced basal rates (insulin 0.32 mU/kg/min, glucagon 1.68 ng/kg/min); settings: last 1 hour of basal hormone replacement period, subcutaneous insulin 0.32 mU/kg/min
# [5] = tested on: conscious subjects (canine); assay: Adrenalectomized canine, insulin-induced hypoglycemia, basal vs high IV glucagon; settings: IV insulin 0.8 mU/kg/min, both groups, increased from ~10
# [6] = not given; remark: listed apart in the source
# [7] = not given; remark: listed apart in the source
# [8] = insulin infusion rate increased 4-fold, subcutaneous
substance,measurement,setting,value
insulin,rise in insulin (plasma),[1],approximately 50 μU/ml
same,individual DS solubility,95% PBS and 5% vitamin E TPGS,1380 µg/mL
same,concentration reached in co-solvents,all co-solvents comprising 34.5-35.5% PB,Target concentrations
same,concentration reached in co-solvents,"all co-solvents tested where organic co-solvent greater than 30% of the mixture, PB pH 7.8",target concentrations
same,average arterial plasma insulin level,"[2]; subcutaneous insulin 0.4 mU/kg/min, end of the basal period",10-12 μU/ml
same,plasma insulin,"[2]; subcutaneous, 4-fold increase in insulin infusion rate, both groups",approximately 45 μU/ml
same,increase of arterial insulin levels,[3],~4 fold
same,"insulin level, average",[4],6 μU/mL
same,arterial insulin level,[5],~40 μU/mL
same,solubility (concentration in supernatant),[6]; DMSO,greater than 8 mg/mL
same,solubility (concentration in supernatant),[6]; NMP,greater than 8 mg/mL
same,solubility (concentration in supernatant),[6]; glycerol,less than 2 mg/mL
same,solubility (concentration in supernatant),[6]; propylene glycol,less than 2 mg/mL
same,"arterial insulin, average","[7]; 150 to 180 min, somatostatin, subcutaneous insulin 0.4 mU/kg/min",9.8±1.4 μU/mL
same,arterial plasma insulin,[7]; after 90 min subcutaneous insulin 0.4 mU/kg/min (endogenous and infused),9.4±0.8 μU/mL
same,decrease of insulin level within the liver vs baseline,[7]; basal hormone replacement period,~50%
same,estimated insulin level within the liver,"[7]; basal hormone replacement period, endogenous secretion inhibited",7.8 μU/mL
same,"arterial insulin level, ultimately reached",[7]; insulin infusion rate increased 4-fold,38.8±3.5 μU/mL
same,increase of arterial insulin level,[7]; [8],~4 fold
same,lag time of arterial insulin increase,[7]; [8],~90 min
same,arterial insulin level,"[7]; insulin infusion rate increased 4-fold, within 90 min",34.5±2.9 μU/mL
same,increase of arterial insulin from baseline,[7]; subcutaneous insulin 0.4 mU/kg/min,approximately 40%

# Read-outs that look alike come from different tables or passages of the source.
